Compounds with a hit are over-represented: about 2% of the library has one in this group of screens.
TDP43 rescue – inhibitors of TDP-43 toxicity in yeast | TDP-43 expressing yeast growth rescue, BacTiter-Glo, 24 h | Potency, µM (top dose mostly 46.1 µM), without a hit: top-dose growth rescue (activation), hits mostly activators | actives 1.8% (n = 410,000); note: % of control where 0% means no effect; nearly all actives have a fitted effect of over 50% in size
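Yeast expressing TDP-43 (pregrown in raffinose, seeded at OD600=0.02 in galactose medium) exposed to compounds 24 hr at 30 deg C. Growth read by BacTiter-Glo luminescence; rescue of toxicity appears as increased signal.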
Rango release inh – prevents RanGTP from dissociating the Rango-importin beta complex; O95149+P62826; Biochemical FRET Rango-importin beta, RanGTP-induced dissociation; Potency, µM (series often up to 46.1 µM), without a hit: top-dose activity change, negative = inhibition; actives 0.071% (n = 340,000); AID 540253; calls by dose curve; note: % of control where 0% means no effect; nearly all actives have a fitted effect of over 45% in size
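Compounds preincubate 5 min with complex of recombinant Rango and importin beta in PBS with 1 mM DTT. Ran (0.6 uM) loaded with 2 mM GTP plus 0.2 uM RCC1 starts dissociation; FRET is recorded 45 min later.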
S-ASM inh – blocks human secretory acid sphingomyelinase. Potency, µM (titrated, usually from 57.5 µM), without a hit: at the top dose activity change, negative = inhibition, usual class: inhibitors. placental ASM, HMU-PC fluorogenic substrate, 60 min. actives 0.006% (n = 340,000). AID 504937
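Fluorescence read-out (Ex 386 nm, Em 447 nm) after stopping the reaction at pH 10. Enzyme: ASM from human placenta; substrate HMU-PC0, 9 uM final; 60 min, 37 °C. Compound preincubation 10 min, ambient temperature.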
Abeta rescue – A-beta toxicity reversal in yeast; yeast expressing A-beta42, growth rescue, OD600, 48 h; response scale: 0% DMSO, 100% iron-clioquinol control; Potency, µM (highest dose often 46.1 µM), actives largely listed as activators; actives 0.063% (n = 410,000); AID 1347071; note: nearly all actives have a fitted effect of over 55% in size
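Yeast A-beta toxicity model in growth medium with pinned compounds, 48 h at 30 C; growth read as absorbance at 600 nm. Normalized to FeCl3/clioquinol equimolar mix (positive) and DMSO (negative).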
Rango-impB inh – Rango-importin beta binding inhibition; Q14974; Rango CFP/YFP FRET sensor + importin beta, 45 min; Potency, µM (series often up to 92.2 µM), for the others: at the top dose inhibition of complex formation; actives 0.031% (n = 340,000); calls by dose curve;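 note: 0% = DMSO wells and 100% = buffer wells lacking importin beta; nearly all actives have a fitted effect of over 15% in size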
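FRET biosensor Rango (snurportin 1 IBB between N-terminal EYFP and C-terminal Cerulean), 50 nM in PBS/1 mM DTT/0.02% Tween-20/0.1% BSA, preincubated 5 min RT with compound; 0.125 microM importin beta added, 45 min RT, CFP/YFP FRET ratio read.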
aSyn yeast inh – alpha-synuclein toxicity inhibition in yeast; Yeast expressing alpha-synuclein, growth rescue, BacTiter-Glo, 24 h; Potency, µM (series often up to 46.1 µM), for inactives: at the top dose growth rescue (activation), usual class: activators; actives 0.14% (n = 370,000); AID 652106; note: % of control where 0% means no effect; nearly all actives have a fitted effect of over 65% in size
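Galactose-induced alpha-syn yeast (OD600=0.02, raffinose-pregrown) + pinned cpd, 24 hr, 30 deg C; growth by BacTiter-Glo luminescence. Growth restoration scores as activation.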
Active calls of the source: *; i = inactive; u = inconclusive; x = not tested or not shown. Unless noted, calls come from the whole dose curve; as a rule, active = well fitted curve in the direction sought with a large enough effect; inconclusive = small, poorly fitted or top-dose-only effect, or another doubt; inactive = no such curve, though single readings can be large; an effect the other way counts as inactive or inconclusive. Potency is the fitted concentration of half-maximal effect.

Labels used below: A = TDP43 rescue; B = Rango release inh; C = S-ASM inh; D = Abeta rescue; E = Rango-impB inh; F = aSyn yeast inh
(1) Nc1c(-c2ccc(Cl)cc2)cnn1-c1cccc([N+](=O)[O-])c1
  A: 12%; B: 2%; C: -8%; D: i; E: -2%; F: -10%
(2) Nc1c(-c2ccccc2)cnn1-c1cccc([N+](=O)[O-])c1
  A: 20µM*; B: -27%; C: -4%; D: i; E: -3%; F: 2%
(3) COc1cc(-c2ccno2)ccc1S(=O)(=O)N1CCN(c2ccccc2)CC1
  A: 11µM*; B: x; C: x; D: i; E: x; F: x
(4) COc1ccccc1N1CCN(S(=O)(=O)c2ccc(-c3ccno3)cc2OC)CC1
  A: 13µM*; B: x; C: x; D: i; E: x; F: x
(5) COc1cc(-c2ccno2)ccc1S(=O)(=O)N1CCN(c2ccc(F)cc2)CC1
  A: 25%; B: x; C: x; D: i; E: x; F: x
(6) COc1cccc(N2CCN(S(=O)(=O)c3ccc(-c4ccno4)cc3OC)CC2)c1
  A: 13µM*; B: x; C: x; D: i; E: x; F: x
(7) CCc1cc(/C=C/c2ccnc3ccccc23)ccc1N(C)C
  A: x; B: x; C: x; D: x; E: x; F: -18%
(8) COc1ccc(NC(=O)CSc2nc(O)c(C/C=C/c3ccccc3)c(=O)[nH]2)cc1
  A: 2%; B: x; C: x; D: i; E: x; F: x
(9) NCC(O)C1CCCCCCC1 (stereo not given)
  A: x; B: x; C: x; D: x; E: x; F: 2%
(10) O=C1OCCC1Sc1nc2cc(Cl)ccc2n1Cc1ccccc1 (stereo not given)
  A: 35µM*; B: 2%; C: -14%; D: i; E: -2%; F: 1%

From compound 4 up to 7, as listed above:
Labels used below: A = TDP43 rescue; B = Rango release inh; C = S-ASM inh; D = Abeta rescue; E = Rango-impB inh; F = aSyn yeast inh
(4) COc1ccccc1N1CCN(S(=O)(=O)c2ccc(-c3ccno3)cc2OC)CC1
  A: 13µM*; B: x; C: x; D: i; E: x; F: x
(5) COc1cc(-c2ccno2)ccc1S(=O)(=O)N1CCN(c2ccc(F)cc2)CC1
  A: 25%; B: x; C: x; D: i; E: x; F: x
(6) COc1cccc(N2CCN(S(=O)(=O)c3ccc(-c4ccno4)cc3OC)CC2)c1
  A: 13µM*; B: x; C: x; D: i; E: x; F: x
(7) CCc1cc(/C=C/c2ccnc3ccccc23)ccc1N(C)C
  A: x; B: x; C: x; D: x; E: x; F: -18%

The listing continues.
Labels used below: A = TDP43 rescue; B = Rango release inh; C = S-ASM inh; D = Abeta rescue; E = Rango-impB inh; F = aSyn yeast inh
(11) C#CCn1c(C2CC(=O)N(c3ccc(OC)cc3)C2)nc2ccccc21 (stereo not given)
  A: 14%; B: x; C: x; D: i; E: x; F: x
(12) Cc1ccc(C(=O)c2cn(Cc3cccc(C)c3)c3nc(C)ccc3c2=O)cc1
  A: 20µM*; B: x; C: x; D: i; E: x; F: x
(13) Cc1ccc(Cn2cc(C(=O)c3ccc(C)cc3)c(=O)c3ccc(C)nc32)cc1
  A: 25%; B: x; C: x; D: i; E: x; F: x
(14) COc1cc2c(cc1OC)C(c1cc(OC)c(O)c(OC)c1)CC(=O)N2 (stereo not given)
  A: 5%; B: x; C: x; D: i; E: x; F: x
(15) Cc1ccc(Cl)cc1N1CCN(c2nc3ccc(C(=O)c4ccccc4)cc3n3cnnc23)CC1
  A: 7%; B: x; C: x; D: i; E: x; F: x
(16) COc1cc(NC(=S)Nc2ccccn2)cc(OC)c1
  A: 10µM*; B: 4%; C: 2%; D: i; E: -3%; F: 1%
(17) S=C(Nc1ccccn1)Nc1ccccc1Cl
  A: 16µM*; B: 2%; C: -2%; D: i; E: -1%; F: -4%
(18) Cc1ccc(Cn2cc(S(=O)(=O)c3cccc(C)c3)c(=O)c3cc(F)c(N4CCOCC4)cc32)cc1
  A: 0%; B: x; C: x; D: i; E: x; F: x
(19) Cc1ccc2oc(/N=C(\N)NC(=O)C(C)(C)C)nc2c1
  A: -9%; B: -8%; C: 2%; D: i; E: 0%; F: 0%
(20) Cc1ccc2oc(/N=C(\N)NC(=O)C3CC3)nc2c1
  A: 20µM*; B: -17%; C: -2%; D: i; E: 2%; F: -28%
(21) COc1cccc(NC(=O)CN(C)CC(=O)Nc2ccc(Cl)cc2[N+](=O)[O-])c1
  A: 18µM*; B: -7%; C: -1%; D: i; E: 2%; F: 7%
(22) CC(=O)Nc1ccc(/C=C2\C=Cc3ccccc32)cc1
  A: x; B: x; C: x; D: x; E: x; F: -32%
(23) COc1cccc(Oc2cnc(N)nc2-c2ccc(OC)cc2O)c1
  A: 10µM*; B: 16%; C: -10%; D: i; E: -4%; F: 2%
(24) Cc1ccc(OC(=O)CSc2nnc(-c3ccc4c(c3)OCO4)o2)c(C)c1
  A: 18%; B: x; C: x; D: i; E: x; F: x
(25) O=C(Nc1nnc(S(=O)(=O)N2CCCCC2)s1)c1ccc(F)cc1
  A: 18%; B: x; C: x; D: i; E: x; F: x
(26) O=C(Nc1cccc(F)c1)N1CCc2nc(NCc3cccc(Oc4ccccc4)c3)ncc2C1
  A: 16µM*; B: x; C: x; D: i; E: x; F: 7%
(27) Cc1ccc(NC(=O)CSc2[nH]c(=O)ncc2C)cc1
  A: 1%; B: x; C: x; D: i; E: x; F: x
(28) NC(=O)c1ccc(NC(=O)CN2C(=O)NC3(CCCCCCC3)C2=O)cc1
  A: -8%; B: -13%; C: 3%; D: i; E: 2.1µM*; F: 2%
(29) O=C(CN1C(=O)NC2(CCCCC2)C1=O)Nc1ccc(F)cc1
  A: -3%; B: -1%; C: -3%; D: i; E: 0%; F: 0%
(30) COc1ccc(C=O)cc1COc1ccc([N+](=O)[O-])c(C)c1
  A: u; B: 0%; C: -8%; D: i; E: 0%; F: 23%
(31) COc1ccc(C=O)cc1COc1ccc2c(c1)OCO2
  A: 14µM*; B: 0%; C: 4%; D: i; E: -1%; F: 5%
(32) CCOC(=O)C1=C(SCC)c2cc3c(n2C1=O)CCCC3
  A: -8%; B: 0%; C: -18%; D: i; E: 6%; F: -7%
(33) N#CC1=C(N2CCCCC2)c2cc3c(n2C1=O)CCCC3
  A: 14µM*; B: -7%; C: -8%; D: i; E: 3%; F: 4%
(34) Cc1cccc(NC(=O)C2CCCN(S(=O)(=O)c3cnc[nH]3)C2)c1C (stereo not given)
  A: 10%; B: x; C: x; D: i; E: x; F: x
(35) CC1(c2nnc(-c3ccc(Cl)cc3)o2)CC(c2c(Cl)cccc2Cl)=NO1 (stereo not given)
  A: 24%; B: 0%; C: -6%; D: i; E: -4%; F: -3%
(36) CC1(c2nnc(-c3ccc(F)cc3)o2)CC(c2c(Cl)cccc2Cl)=NO1 (stereo not given)
  A: 35µM*; B: 26%; C: 0%; D: i; E: -2%; F: -11%
(37) CCCc1cc(=O)oc2cc(OC(=O)CN3C(=O)NC4(CCCC4)C3=O)ccc12
  A: 17%; B: 12µM*; C: x; D: i; E: u; F: 5%
(38) CC1CCN(S(=O)(=O)c2ccc(C(=O)Nc3nnc(C4CC4)o3)cc2)CC1
  A: u; B: 4%; C: 0%; D: 13µM*; E: -2%; F: 18µM*
(39) O=C(Nc1nnc(C2CC2)o1)c1ccc(S(=O)(=O)N2CCCc3ccccc32)cc1
  A: 18µM*; B: 0%; C: -3%; D: u; E: -3%; F: u
(40) Cc1nnc(NC(=O)c2ccc(S(=O)(=O)N3CC(C)CC(C)C3)cc2)o1 (stereo not given)
  A: -7%; B: -1%; C: 7%; D: u; E: u; F: 16µM*
(41) Cc1ccccc1NC(=O)COc1ccccc1C(=O)Nc1ccccc1
  A: x; B: x; C: x; D: x; E: x; F: -2%
(42) O=[N+]([O-])c1ccc(-c2cc3ccccc3[nH]2)cc1
  A: x; B: x; C: x; D: x; E: x; F: -10%
(43) COc1ccc(/C=C2\C=Cc3ccccc32)cc1OC
  A: x; B: x; C: x; D: x; E: x; F: -20%
(44) O=C(NCc1ccccc1Cl)c1nnc(Cc2cccc(F)c2)o1
  A: 27%; B: x; C: x; D: i; E: x; F: x
(45) N#Cc1cn(CCOc2ccccc2F)c2ccccc12
  A: u; B: 17%; C: -9%; D: u; E: -2%; F: u
(46) N#Cc1cn(CCOc2ccc(F)cc2)c2ccccc12
  A: 20µM*; B: 2%; C: -11%; D: u; E: -1%; F: 28%
(47) COc1ccc(CCn2c(=S)[nH]c(=O)c3c(C)cc(C)nc32)cc1OC
  A: x; B: x; C: x; D: x; E: x; F: -5%
(48) O=C(NC(=S)N1CCN(c2ccc(C(F)(F)F)cc2[N+](=O)[O-])CC1)c1cccs1
  A: 20µM*; B: 11%; C: -5%; D: i; E: u; F: -3%
(49) COc1ccc(C)cc1S(=O)(=O)Nc1ccc(F)c(Cl)c1
  A: 18µM*; B: 11%; C: -3%; D: i; E: 0%; F: 4%
(50) COc1ccc(NS(=O)(=O)c2cc(C)ccc2OC)cc1OC
  A: -17%; B: 1%; C: 5%; D: i; E: 0%; F: -14%

From PubChem BioAssay
